# System: phenazocine (agonist effect in rat tail-flick)
# Experiment: Tail-flick antagonist test against phenazocine
# Conditions: both subcutaneously and orally
smiles,measurement,value
"CC(C)=CCN1CCC2(C)c3cc(O)ccc3CC1C2C (stereo not shown) [pentazocine, reference compound]",Potency relative to the compound of Example 1B in the tail-flick antagonist test against phenazocine,significantly less potent
